In patent US20240016795A1 (published 2024):

Molecular target: BRD4 bromodomain (Homo sapiens, UniProt O60885)
Experiment: biochemical
Conditions: IC50, BRD4, HTRF / time-resolved fluorescence assay

With `COC(=O)N1c2ccc3c(nc([C@H](O)c4cc(F)ccc4OC(F)F)n3[C@@H]3CCC[C@@H](C(=O)O)C3)c2CC[C@@H]1C` [Compound 3, (1R,3R)-3-((S)-2-((R)-(2-(difluoromethoxy)-5-fluorophenyl)(hydroxy)methyl)-6-(methoxycarbonyl)-7-methyl-6,7,8,9-tetrahydro-3H-imidazo[4,5-f]quinolin-3-yl)cyclohexane-1-carboxylic acid] as the compound, how does the IC50 read?
Its IC50 is over 1000 nM.
